Measured values from paper PMC8235661, “Photoelectric Dye, NK-5962, as a Potential Drug for Preventing Retinal Neurons from Apoptosis: Pharmacokinetic Studies Based on Review of the Evidence” (Life, 2021).

Assay: PAMPA (parallel artificial membrane permeability assay)
Assay type: in vitro ADME
Conditions: reference compound at 500 μM
Procedure: In order to determine the passive membrane diffusion rates, the Corning Gentest Pre-coated PAMPA Plate System was used in the PAMPA test. […] The acceptor plate was then placed on top of the donor plate and incubated at 37 °C without agitation for 4 h. At the end of the incubation, the plates were separated and the solutions from each well of both the acceptor plate and the donor plate were transferred to 96-well plates and mixed with acetonitrile. The final concentrations of compound in both the donor wells and acceptor wells, as well as the concentrations of the initial donor solutions, were analyzed by LC-MS/MS. The permeability of the compound was calculated according to the previous report. The recovery of the test compound was more than 90%.

- PAMPA permeability of reference compound: 0.034 ×10⁻⁶ cm/s
SMILES: O=C(O)c1cc(/N=N/c2ccc(S(=O)(=O)Nc3ccccn3)cc2)ccc1O [sulfasarazine]
